DT40 TDP1 CPT: growth inhibition of DT40 Tdp1-/-;hTDP1 cells with camptothecin (screen for TDP1 inhibitors); chicken DT40 Tdp1-/-;hTDP1 cells + 20 nM CPT, ATP luminescence, 48 h; Potency, µM (top dose mostly 46.2 µM), hits mostly inhibitors; hit rate 12% among 420,000; AID 686979; also: nearly all actives have a fitted effect of over 55% in size
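Chicken DT40 Tdp1-/- cells complemented with human TDP1, 400 cells/well, exposed to compounds plus 20 nM camptothecin for at least 48 h at 37 C; viability read as ATP content by CellTiter-Glo luminescence.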
miR-21 FLuc: miR-21 reporter, rising signal | HeLa miR-21 FLuc reporter, luciferase, 48 h | Potency, µM (top dose mostly 38.3 µM) | 340,000 tested, under 10 active | AID 2288; active = well fitted rising curve with a large enough effect; inconclusive = small, poorly fitted or top-dose-only effect; inactive = no such curve, though single readings can be large or run the other way;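 further: miR-21 action dims this reporter so a rising signal means less miR-21 action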
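Compounds were titrated across several concentrations (up to approximately 40 uM) and incubated 48 hours with HeLa miR-21-FLuc reporter cells (miR-21 target sequence downstream of FLuc, endogenous miR-21). Readout was firefly luciferase luminescence after lytic detection reagent.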
TDP1 cell noCPT: qHTS for Inhibitors of human tyrosyl-DNA phosphodiesterase 1 (TDP1): qHTS in cells in absence of CPT; DT40 Tdp1-/- hTDP1 cells, no CPT, ATP luminescence, 48 h; Potency, µM (titrated, usually from 46.2 µM), actives largely listed as inhibitors; hit rate 15% among 420,000; also: nearly all actives have a fitted effect of over 55% in size
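Growth kinetics read by CellTiter-Glo luminescence after ≥48 hr at 37 °C. Cells: DT40 Tdp1-/- stably carrying human TDP1, 400 per well, compound exposure in the absence of CPT (DMSO vehicle).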
TDP1 inh: inhibitors of human tyrosyl-DNA phosphodiesterase TDP1 | AID 485290 | recombinant TDP1, AlphaScreen DNA substrate cleavage | Potency, µM (highest dose often 130 µM), actives largely listed as inhibitors | Q9NUW8 | hit rate 0.28% among 350,000; also: nearly all actives have a fitted effect of over 40% in size
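Tdp1 1 nM final; 15 min RT w/ cpd; substrate 15 nM, 5 min; beads 10 ug/ml, 10 min; AlphaScreen read. Neg ctrl: no enzyme.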
uPA generation: blocks generation of uPA at the cell surface; cell surface uPA generation assay, qHTS; Potency, µM (series often up to 38.3 µM), actives largely listed as inhibitors; hit rate 0.31% among 330,000; AID 540303; active = well fitted inhibition curve with a large enough effect; inconclusive = small, poorly fitted or top-dose-only effect; inactive = no such curve, though single readings can be large or run the other way; tested in mouse RAW 264.7 cells; also: nearly all actives have a fitted effect of over 55% in size
Numbers stand for hits; - = inactive; ? = inconclusive; . = not tested or not shown; [ ] = dose if it differs, or a comment. A selection: hits, their analogues and other compounds. The true share with any hit is near 16%. Unless noted, calls follow the shape of the dose curve; as a rule, active = well fitted curve in the direction sought with a large enough effect; inconclusive = small, poorly fitted or top-dose-only effect, or another doubt; inactive = no such curve, though single readings can be large; an effect the other way counts as inactive or inconclusive.

SMILES | DT40 TDP1 CPT | miR-21 FLuc | TDP1 cell noCPT | TDP1 inh | uPA generation
COc1ccc(-n2c(O)c(C(C)=NCc3ccc4c(c3)OCO4)c(=O)[nH]c2=O)cc1 | - | - | - | - | -
Cc1cc(OCC(=O)N[C@H](C(=O)O)c2ccccc2)c2c3c(c(=O)oc2c1)CCC3 | - | - | - | . | -
Cc1nc(-c2ccc(-c3ccc(C(=O)N4CCc5cc6c(cc54)C4(CCN(C)CC4)CO6)cc3)c(C)c2)no1 | 7.5µM | . | 6µM | - | .
Cc1ccc(-n2c(=S)[nH]c3ccccc3c2=O)cc1F | - | . | ? | . | .
CCCOC(=O)Cc1ccc(OCC(=O)N(CC)CC)c(OC)c1 | - | . | ? | . | .
O=C1/C(=C\c2ccccc2)C2OCC=C3CN4CCC56c7ccccc7N1C5C2C3CC46 (stereo unspecified) | 21µM | - | ? | . | -
O=C1C[C@@H]2OCC=C3CN4CC[C@]56c7ccccc7N1[C@@H]5[C@@H]2[C@H]3C[C@H]46 (tested in a mixture with another compound) | . | . | . | - | .
CCc1ccc(C2=NN(CCC(=O)N3CCC4(CC3)OCCO4)C(=O)CC2)cc1 | - | - | - | - | -
CC1=CC(=O)OC2CC3OC4C[C@@H](C)C5OC6CC7O[C@]8(C)C/C=C\C9OC%10CC%11OC(CC(C)C%12OCCO%12)CC(O)[C@]%11(C)OC%10CC9OC8C[C@]7(C)O[C@]6(C)CCC5OC4C[C@]3(C)OC12 (stereo partly specified) | 29µM | . | ? | - | -
C=C(CC1CC(O)[C@]2(C)OC3CC4OC5C[C@]6(C)O[C@]7(C)CCC8OC9C[C@]%10(C)OC%11C(C)=CC(=O)OC%11CC%10OC9C[C@@H](C)C8OC7CC6O[C@]5(C)C/C=C\C4OC3CC2O1)C(=O)O (stereo partly specified) | ? | - | ? | - | -
CCN1C(=O)/C(=C/c2ccc3c(c2)CCN3CCCCl)C(=O)NC1=S | ? | - | 23µM | - | -
CC(C)(C)N1C(=O)NC(=O)/C(=C\c2ccc3c(c2)CCN3CCCCl)C1=O | - | - | ? | . | -
Cc1cccc(NP(C)(=O)c2nc3c(s2)CCCC3)c1 (stereo unspecified) | - | - | - | - | -
CCc1ccc(N2C(=O)NC(=O)C(CCc3ccncc3)(CCc3ccncc3)C2=O)cc1 | - | - | - | - | -
O=C1NC(=O)C(CCc2ccncc2)(Cc2cccc(Cl)c2Cl)C(=O)N1c1ccc(Br)cc1 (stereo unspecified) | 4.6µM | ? | 5.8µM | - | -
CN1C[C@H](CO)C=C2c3cccc4[nH]cc(c34)C[C@@H]21 | . | . | . | - | .
COc1ccc(N/N=C/c2c(O)n(-c3ccc(C)c(C)c3)c(=O)[nH]c2=O)cc1 | ? | - | 29µM | - | -
CCOc1ccc2nc(N3CCC(C(=O)Nc4ccc(Br)cc4F)CC3)sc2c1 | 12µM | - | 13µM | - | .
CCOC(=O)c1cccc(C2=C(CNC(=O)c3nccs3)[C@H]3CC[C@@H](C2)N3Cc2ccccc2)c1 | 15µM | . | 23µM | . | .
COC(=O)Nc1nc2ccccc2[nH]1 | 6.5µM | . | 5.8µM | - | -
CC(=O)CC1CCCCN1 (stereo unspecified) | - | . | - | - | .
C=C1CCC(O)C/C1=C\C=C1/CCCC2(C)C1CCC2C(C)CCCC(C)C (stereo unspecified) | 24µM | . | 27µM | - | .
C=C1CC[C@H](O)C/C1=C/C=C1\CCC[C@]2(C)[C@H]1CC[C@H]2[C@@H](C)CCCC(C)C | . | . | . | -[21 µM] | .
C[C@]12CCC(=O)C(O)=C1CC[C@@H]1[C@@H]2CC[C@]2(C)C(=O)CC[C@@H]12 | - | - | ? | - | -
O=Cc1cc(OCc2ccccc2)ccc1[B-](F)(F)F | 1.3µM | . | 2.1µM | . | ?
SMILES | DT40 TDP1 CPT | miR-21 FLuc | TDP1 cell noCPT | TDP1 inh | uPA generation
OCCNCCc1c[nH]c2ccc(OCc3ccccc3)cc12 | - | - | ? | . | -
CCN(CC)CCO[C@H]1CC[C@@]2(C)C(=CC[C@@H]3[C@H]2CC[C@]2(C)C(=O)CC[C@H]32)C1 | 2.4µM | . | 2.4µM | - | .
C[C@]12CCC(OC(=O)CCC(=O)O)CC1=CCC1C2CC[C@]2(C)C(=O)CCC12 (stereo partly specified) | - | - | - | . | -
CCN(CC)CCO[C@H]1CC[C@@]2(C)C(=CC[C@@H]3[C@@H]2CC[C@]2(C)C(=O)CC[C@@H]32)C1 | 24µM | . | 2.7µM | . | .
COCCO[C@H]1CC[C@@]2(C)C(=CCC3C2CC[C@@]2(C)C3CC[C@]2(C)O)C1 (stereo partly specified) | ? | . | 12µM | - | -
C[C@]12CC[C@H](OS(=O)(=O)O)CC1=CCC1C2CC[C@]2(C)C(=O)CC[C@@H]12 (stereo partly specified) | . | . | . | - | .
CN=C1CN(O)C(c2ccccc2)c2cc(Cl)ccc2N1 (stereo unspecified) | - | . | ? | . | -
C=C1C(C)C2C(Cc3ccccc3)NC(=O)C23C(OC(C)=O)C=CC(C)(O)CC(C)CC=CC3C1O (stereo unspecified) | 0.46µM | . | 0.73µM | . | -
C=C1[C@@H](C)[C@H]2[C@H](Cc3ccccc3)NC(=O)[C@]23OC(=O)/C=C/[C@H](O)CCC[C@@H](C)C/C=C/[C@H]3[C@@H]1O | 1.8µM | - | 0.65µM | - | ?
C[C@H]1C/C=C/[C@H]2[C@H](O)[C@H](C)[C@@](C)(O)[C@H]3[C@H](Cc4ccccc4)NC(=O)[C@]32[C@H](O)/C=C/[C@](C)(O)C1 | 3.7µM | . | 8.2µM | . | ?
CC(=O)O[C@@H]1/C=C/[C@](C)(O)C[C@@H](C)C/C=C/[C@H]2[C@H](O)C(C)=C(C)[C@H]3[C@H](Cc4ccccc4)NC(=O)[C@@]123 | 0.58µM | . | 0.58µM | . | ?
NP(=O)(Oc1ccccc1)Oc1ccccc1 | - | . | - | . | -
Cc1cccc(C(C)c2cnc[nH]2)c1C (stereo unspecified) | 27µM | . | ? | . | .
C=CCC1([C@@H](C)CCC)C(=O)NC(=O)NC1=O | ? | . | ? | - | -
O=C(CCS(=O)(=O)Cc1ccccc1)Nc1nc2c(s1)CCCC2 | ? | - | 26µM | - | ?
O=C(CCS(=O)(=O)c1ccccc1)Nc1nnc(-c2ccco2)o1 | ? | - | ? | - | -
O=c1[nH]c(=O)n(CCc2ccccc2)c(O)c1C=NC1CC1 | - | - | - | . | -
